In ChEMBL document CHEMBL3286371, “wALADin benzimidazoles differentially modulate the function of porphobilinogen synthase orthologs” (J Med Chem, 2014):

Key:
Toxoplasma gondii = assay: Stimulation of Toxoplasma gondii recombinant PBGS using 5-ALA as substrate at […]
[1] = target: T1, Delta-aminolevulinic acid dehydratase (Wolbachia sp. subsp. Brugia malayi (strain TRS), UniProt Q5GSR3); assay: Inhibition of C-terminal His-tagged Wolbachia PBGS using 5-ALA as substrate
T1 sequence (Q5GSR3 whole entry): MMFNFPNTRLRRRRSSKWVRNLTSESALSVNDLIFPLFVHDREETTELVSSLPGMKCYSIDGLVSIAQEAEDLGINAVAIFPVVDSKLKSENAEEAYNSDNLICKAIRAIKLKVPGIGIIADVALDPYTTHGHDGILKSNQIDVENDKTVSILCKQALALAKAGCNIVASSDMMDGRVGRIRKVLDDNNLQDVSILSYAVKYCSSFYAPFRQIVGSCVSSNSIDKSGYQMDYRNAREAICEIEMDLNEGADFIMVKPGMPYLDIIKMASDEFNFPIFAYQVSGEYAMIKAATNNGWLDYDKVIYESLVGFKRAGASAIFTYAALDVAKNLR

[2] = target: T2, Delta-aminolevulinic acid dehydratase (Homo sapiens, UniProt P13716); assay: Inhibition of human PBGS using 5-ALA as substrate
T2 sequence (P13716 whole entry): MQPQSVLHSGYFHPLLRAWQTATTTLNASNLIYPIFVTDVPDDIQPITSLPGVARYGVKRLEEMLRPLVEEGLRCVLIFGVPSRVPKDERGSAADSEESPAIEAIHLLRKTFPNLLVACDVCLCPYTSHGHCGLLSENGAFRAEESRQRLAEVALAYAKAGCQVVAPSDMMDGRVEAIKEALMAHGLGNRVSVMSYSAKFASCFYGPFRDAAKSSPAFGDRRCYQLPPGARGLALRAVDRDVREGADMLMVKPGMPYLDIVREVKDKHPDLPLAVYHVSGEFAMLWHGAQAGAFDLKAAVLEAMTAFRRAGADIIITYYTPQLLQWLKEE

SMILES | Smax (Toxoplasma gondii) | IC50 [1] | IC50 [2]
O=C(O)c1ccc2nc(CCNC(=O)c3cccs3)n(Cc3cccc(C(F)(F)F)c3)c2c1 | 115% |  | 
Cn1cnc2cc(C(=O)O)ccc21 |  | 500 µM | 500 µM
